Counter-ions that a name gives are not always drawn.
Assays:
[1] = target: AChE within differentiated SH-SY5Y neuroblastoma cells (Homo sapiens, UniProt P22303); assay: cell-based
[2] = target: recombinant human acetylcholinesterase (hAChE) (Homo sapiens, UniProt P22303); assay: biochemical

Protein sequences, listed by entry. Tags and fused reporters are not part of them. Residues count along the entry.
UniProt P22303, 32-614: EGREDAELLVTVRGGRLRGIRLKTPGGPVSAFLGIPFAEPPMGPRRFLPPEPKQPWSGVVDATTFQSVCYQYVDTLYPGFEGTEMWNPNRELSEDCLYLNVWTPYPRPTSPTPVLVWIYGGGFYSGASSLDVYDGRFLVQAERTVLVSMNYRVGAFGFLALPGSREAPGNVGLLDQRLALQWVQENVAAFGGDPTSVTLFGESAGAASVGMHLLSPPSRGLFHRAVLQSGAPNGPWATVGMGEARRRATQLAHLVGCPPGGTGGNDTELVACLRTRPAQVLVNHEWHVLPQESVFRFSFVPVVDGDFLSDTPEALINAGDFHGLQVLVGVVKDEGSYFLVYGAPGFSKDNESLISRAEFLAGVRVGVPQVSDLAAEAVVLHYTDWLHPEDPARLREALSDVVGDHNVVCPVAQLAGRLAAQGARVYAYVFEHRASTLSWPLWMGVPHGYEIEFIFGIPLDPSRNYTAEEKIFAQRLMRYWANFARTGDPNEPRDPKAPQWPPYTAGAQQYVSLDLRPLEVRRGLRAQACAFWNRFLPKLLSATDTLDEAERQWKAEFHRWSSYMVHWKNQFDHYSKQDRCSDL

`COc1ccc2cc3[n+](cc2c1OC)CCc1cc2c(cc1-3)OCO2` [Ber, berberine hydrochloride] was tested, and the IC50 [1] was 4.84 µM and the IC50 [2] was 3.13 µM.

— paper PMC7913148, “Anti-Cholinesterase Combination Drug Therapy as a Potential Treatment for Alzheimer’s Disease” (Brain Sciences, 2021)
